Here are results for one substance from patent US5041426A, “Immune system enhancing 3-β-d-ribofuranosylthiazolo[4,5-d]pyridimine nucleosides and nucleotides” (priority 1988, dated 1991).

The subject of this data set is Mastocytoma (P815) tumor cells. The data set can be described thus: In vivo potentiation of cytotoxic lymphocytes activity against mastocytoma tumor cells. More on the design: species or system mouse. The note with it: for % Cytotoxicity: DBA/2 mice, compound 7 2 mg/mouse, interleukin-2 50 U per mouse. The method, then: ^a Ten mice in each group were inoculated with 2 × 10^6
tumor cells. After 5 hours, saline or nucleoside compound 7 solution (2
mg/mouse) was administered to each mouse. On days 3,5,7 or 9, spleen cell
were isolated and their cytotoxicity was determined against P815 tumor
cells as described in Gonzales and Sharma.
Compound 7 was tested to determine whether or not it can increase cytotoxic lymphocytes response against mastocytoma tumor cells. In the test mice were immunized with mastocytoma cells (P815) and after 5 hours compound 7 as a solution was given in a dose of […] per mouse.

As to “Recombinant Interleukin-2: recombinant interleukin-2 was utilized as a control given at 50 U per mouse”, the “% Cytotoxicity” value is recorded as 21% (day 5) and 20% (day 9). Also, the “cytotoxicity versus control group” value (p<0.05) is “higher cytotoxicity activity as compared to the control group”.
